{
  "source": "patent US12241090B2",
  "about": "“Methods and systems for converting precursor cells into gastric tissues through directed differentiation” (CHILDREN'S HOSPITAL MEDICAL CENTER, priority 2014, dated 2025)",
  "molecules": {"B1": {"name": "BMP2: BMP ligand added at 100 ng mL−1 (protein, UniProt P12643 283-396, looked up)", "Bone morphogenetic protein 2": "QAKHKQRKRLKSSCKRHPLYVDFSDVGWNDWIVAPPGYHAFYCHGECPFPLADHLNSTNHAIVQTLVNSVNSKIPKACCVPTELSAISMLYLDENEKVVLKNYQDMVVEGCGCR"}},
  "tested_on": "hPSC-derived definitive endoderm (DE) cultures",
  "assay": "Endoderm patterning of hPSC-derived DE cultures with growth factors/antagonists, qPCR and immunofluorescence",
  "type": "cell-based, human",
  "conditions": "BMP2 100 ng mL−1",
  "method": "Following DE induction, cells were treated for three days with growth factors/antagonists in RPMI 1640 with 2.0% dFBS. […] CHIR99021 is a small molecule that stimulates the Wnt signaling pathway. RA (2 μM; Sigma Aldrich) is added on the final day. Three-dimensional growth and antral specification. Posterior foregut spheroids were embedded in Matrigel (BD Biosciences) as previously described^10, 12 and subsequently grown in Advanced DMEM/F12 (Invitrogen) supplemented with N2 (Invitrogen), B27 (Invitrogen), L-glutamine, 10 μM HEPES, penicillin/streptomycin, and EGF (100 ng ml^−1; R&D Systems). For antral specification, RA and noggin were added for the first three days of three-dimensional growth. For endocrine cell specification, the EGF concentration is lowered to 10 ng ml^−1 at day 30.\nThe media was changed every day.\nAll tissues were fixed in 4% paraformaldehyde for either one hour at room temperature for frozen processing or overnight at 4° C. for paraffin processing. For frozen sections, tissue was protected in 30% sucrose overnight at 4° C., then embedded in OCT (Tissue-Tek), and cut at 10 μm. For paraffin sections, tissue was processed through a graded ethanol series, followed by xylene, and then embedded in paraffin and cut at 7 μm. Tissue culture cells were fixed for 15 minutes at room temperature and stained directly. […]",
  "data": [
    {"molecule": "B1", "values": [
      {"measurement": "ability to posteriorize endoderm in place of or with Wnt/FGF", "value": "did not substitute for or augment"}
    ]}
  ]
}
